Source: patent US6936585B2, “Corticotropin releasing factor 2 receptor agonists” (priority 2002, dated 2005)

Experiments:
[1] = target: T1, CRF2R (Homo sapiens, UniProt Q13324); assay: CRF2R agonist activation (EC50 / Emax), called comparative CRF binding; type: cell-based; conditions: for Emax: read-out: CRF2R Emax
T1 sequence (Q13324 1-411): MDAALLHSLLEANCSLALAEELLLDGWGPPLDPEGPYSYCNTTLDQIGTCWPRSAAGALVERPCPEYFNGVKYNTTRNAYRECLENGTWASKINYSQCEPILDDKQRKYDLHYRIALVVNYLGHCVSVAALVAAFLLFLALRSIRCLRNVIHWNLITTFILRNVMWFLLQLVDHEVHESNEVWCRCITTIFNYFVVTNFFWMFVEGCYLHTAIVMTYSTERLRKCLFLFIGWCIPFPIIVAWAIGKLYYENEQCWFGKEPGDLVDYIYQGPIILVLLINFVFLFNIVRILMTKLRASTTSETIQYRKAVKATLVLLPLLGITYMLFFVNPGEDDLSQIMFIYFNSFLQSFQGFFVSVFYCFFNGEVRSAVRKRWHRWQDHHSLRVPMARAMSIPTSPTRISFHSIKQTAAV
Procedure, shortened: (§1)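 Receptor-expressing cells are contacted with test peptide or the vehicle it is dissolved in. Lysates are then assayed for cAMP, or expression of a CRE-coupled reporter is quantitated. Engineered cells carrying receptor-G-protein fusions may replace full-length receptors.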

[2] = target: T2, CRF1R (Homo sapiens, UniProt P34998); assay: CRF1R agonist activation (EC50 / Emax), called comparative CRF binding; type: cell-based; conditions: for EC50: CRF1R EC50; for Emax: read-out: CRF1R Emax
T2 sequence (P34998 24-415): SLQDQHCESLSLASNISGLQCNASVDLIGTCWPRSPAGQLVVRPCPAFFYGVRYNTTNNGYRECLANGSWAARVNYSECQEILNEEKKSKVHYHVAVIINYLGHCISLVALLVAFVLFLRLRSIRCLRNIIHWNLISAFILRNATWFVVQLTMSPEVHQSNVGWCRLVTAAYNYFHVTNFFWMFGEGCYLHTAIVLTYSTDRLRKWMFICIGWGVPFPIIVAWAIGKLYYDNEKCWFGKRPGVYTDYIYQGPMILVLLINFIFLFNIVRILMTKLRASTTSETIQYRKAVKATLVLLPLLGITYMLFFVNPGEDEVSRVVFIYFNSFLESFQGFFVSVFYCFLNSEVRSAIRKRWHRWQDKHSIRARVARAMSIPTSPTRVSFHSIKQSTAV
Procedure, shortened: as §1

`CC[C@H](C)[C@H](NC(=O)[C@@H](NC(=O)[C@H](CC(=O)O)NC(=O)[C@H](CC(C)C)NC(=O)[C@H](CC(C)C)NC(=O)[C@H](CC(C)C)NC(=O)[C@H](CCCNC(=N)N)NC(=O)[C@H](CC(N)=O)NC(=O)[C@H](CC(N)=O)NC(=O)[C@H](C)NC(=O)[C@H](C)NC(=O)[C@H](CCC(N)=O)NC(=O)[C@H](CCC(N)=O)NC(=O)[C@H](CCCCN)NC(=O)[C@H](CCC(=O)O)NC(=O)[C@H](CCCCN)NC(=O)[C@H](CCC(=O)O)NC(=O)[C@H](CCC(N)=O)NC(=O)[C@H](CCCCN)NC(=O)[C@H](CCC(=O)O)NC(=O)[C@@H](NC(=O)[C@H](CCC(=O)O)NC(=O)[C@@H](NC(=O)[C@H](CCSC)NC(=O)[C@H](CCCCN)NC(=O)[C@H](CCCNC(=N)N)NC(=O)[C@H](CC(C)C)NC(=O)[C@H](CC(C)C)NC(=O)[C@H](CCC(=O)O)NC(=O)[C@@H](NC(=O)[C@@H]1CCCN1C(=O)[C@H](CC(C)C)NC(=O)[C@H](CC(=O)O)NC(=O)[C@@H](NC(=O)[C@H](CO)NC(=O)[C@@H](NC(=O)[C@@H]1CCCN1C(=O)[C@@H]1CCCN1C(=O)CNC(=O)[C@@H]1CCC(=O)N1)[C@@H](C)CC)[C@@H](C)CC)[C@@H](C)CC)[C@@H](C)CC)[C@@H](C)CC)[C@@H](C)O)C(N)=O` [compound 76] was tested. Which EC50 [1] did it give?
The EC50 was 91.4 nM.

What about the Emax [1] of the same compound?
The Emax was 76%.

And the EC50 [2]?
The EC50 was greater than 100 nM.

And the Emax [2]?
The Emax was 7%.

How did the EC50 [1] turn out when `CC[C@H](C)[C@H](NC(=O)[C@@H](NC(=O)[C@H](CC(=O)O)NC(=O)[C@H](CC(C)C)NC(=O)[C@H](CC(C)C)NC(=O)[C@H](CCCNC(=N)N)NC(=O)[C@H](C)NC(=O)[C@H](CC(N)=O)NC(=O)[C@H](CC(N)=O)NC(=O)[C@H](C)NC(=O)[C@H](C)NC(=O)[C@H](CCC(N)=O)NC(=O)[C@H](CCC(N)=O)NC(=O)[C@H](CCCCN)NC(=O)[C@H](CCC(=O)O)NC(=O)[C@H](CCCCN)NC(=O)[C@H](CCC(=O)O)NC(=O)[C@H](CCC(N)=O)NC(=O)[C@H](CCCCN)NC(=O)[C@H](CCC(=O)O)NC(=O)[C@@H](NC(=O)[C@H](CCC(=O)O)NC(=O)[C@@H](NC(=O)[C@@H](NC(=O)[C@H](CCCCN)NC(=O)[C@H](CCCNC(=N)N)NC(=O)[C@H](CC(C)C)NC(=O)[C@H](CC(C)C)NC(=O)[C@H](CCC(N)=O)NC(=O)[C@H](CC(C)C)NC(=O)[C@@H]1CCCN1C(=O)[C@@H](NC(=O)[C@H](CC(=O)O)NC(=O)[C@@H](NC(=O)[C@H](CO)NC(=O)[C@@H](NC(=O)[C@@H]1CCCN1C(=O)[C@@H]1CCCN1C(=O)CNC(=O)[C@@H]1CCC(=O)N1)[C@@H](C)CC)[C@@H](C)CC)C(C)C)C(C)C)[C@@H](C)CC)[C@@H](C)CC)[C@@H](C)O)C(N)=O` [compound 380] was run?
The EC50 was 19 nM.

And the Emax [1]?
Its Emax is 100%.

And the EC50 [2]?
Its EC50 is no less than 1000 nM.

And the Emax [2]?
The Emax was 16%.

`CC[C@H](C)[C@H](NC(=O)[C@@H](NC(=O)[C@H](C)NC(=O)[C@H](CC(C)C)NC(=O)[C@H](CC(C)C)NC(=O)[C@H](CC(C)C)NC(=O)[C@H](C)NC(=O)[C@H](CC(N)=O)NC(=O)[C@H](CC(N)=O)NC(=O)[C@H](C)NC(=O)[C@H](C)NC(=O)[C@H](CCC(N)=O)NC(=O)[C@H](CCC(N)=O)NC(=O)[C@H](CCCCN)NC(=O)[C@H](CCC(=O)O)NC(=O)[C@H](CCCCN)NC(=O)[C@H](CCC(=O)O)NC(=O)[C@H](CCC(N)=O)NC(=O)[C@H](CCCCN)NC(=O)[C@H](CCC(=O)O)NC(=O)[C@@H](NC(=O)[C@H](CCC(=O)O)NC(=O)[C@@H](NC(=O)[C@H](CCSC)NC(=O)[C@H](CCCCN)NC(=O)[C@H](CCCNC(=N)N)NC(=O)[C@H](CC(C)C)NC(=O)[C@H](CC(C)C)NC(=O)[C@H](Cc1ccc(O)cc1)NC(=O)[C@H](CCC(N)=O)NC(=O)[C@@H]1CCCN1C(=O)[C@H](CC(C)C)NC(=O)[C@H](CC(=O)O)NC(=O)[C@@H](NC(=O)[C@H](CO)NC(=O)[C@@H](NC(=O)[C@@H]1CCCN1C(=O)[C@@H]1CCCN1C(=O)CNC(=O)[C@@H]1CCC(=O)N1)[C@@H](C)CC)[C@@H](C)CC)[C@@H](C)CC)[C@@H](C)CC)[C@@H](C)O)C(N)=O` [compound 227] was tested. Which EC50 [1] did it give?
Its EC50 is 33.6 nM.

And the Emax [1]?
Its Emax is 95%.

What about the EC50 [2] of the same compound?
The EC50 was 918 nM.

And the Emax [2]?
Its Emax is 18%.

Which results are given for `CC[C@H](C)[C@H](NC(=O)[C@@H](NC(=O)[C@H](CC(=O)O)NC(=O)[C@H](CC(C)C)NC(=O)[C@H](CC(C)C)NC(=O)[C@H](CC(C)C)NC(=O)[C@H](CCCNC(=N)N)NC(=O)[C@H](CC(N)=O)NC(=O)[C@H](CC(N)=O)NC(=O)[C@H](C)NC(=O)[C@H](C)NC(=O)[C@H](CCC(N)=O)NC(=O)[C@H](CCC(N)=O)NC(=O)[C@H](CCCCN)NC(=O)[C@H](CCC(=O)O)NC(=O)[C@H](CCCCN)NC(=O)[C@H](CCC(=O)O)NC(=O)[C@H](CCC(N)=O)NC(=O)[C@H](CCCCN)NC(=O)[C@H](CCC(=O)O)NC(=O)[C@@H](NC(=O)[C@H](CCC(=O)O)NC(=O)[C@@H](NC(=O)[C@H](CCSC)NC(=O)[C@H](CCCCN)NC(=O)[C@H](CCCNC(=N)N)NC(=O)[C@H](CC(C)C)NC(=O)[C@H](CC(C)C)NC(=O)[C@H](Cc1ccc(O)cc1)NC(=O)[C@@H]1CCCN1C(=O)[C@@H]1CCCN1C(=O)[C@H](CC(C)C)NC(=O)[C@H](CC(=O)O)NC(=O)[C@@H](NC(=O)[C@H](CO)NC(=O)[C@@H](NC(=O)[C@@H]1CCCN1C(=O)[C@@H]1CCCN1C(=O)CNC(=O)[C@@H]1CCC(=O)N1)[C@@H](C)CC)[C@@H](C)CC)[C@@H](C)CC)[C@@H](C)CC)[C@@H](C)O)C(N)=O` [compound 57]?
Emax [1]: 46%; Emax [2]: 12%

For `CC[C@H](C)[C@H](NC(=O)[C@@H](NC(=O)[C@H](CC(=O)O)NC(=O)[C@H](CC(C)C)NC(=O)[C@H](CC(C)C)NC(=O)[C@H](CC(C)C)NC(=O)[C@H](CCCNC(=N)N)NC(=O)[C@H](CC(N)=O)NC(=O)[C@H](CC(N)=O)NC(=O)[C@H](C)NC(=O)[C@H](C)NC(=O)[C@H](CCC(N)=O)NC(=O)[C@H](CCC(N)=O)NC(=O)[C@H](CCCCN)NC(=O)[C@H](CCC(=O)O)NC(=O)[C@H](CCCCN)NC(=O)[C@H](CCC(=O)O)NC(=O)[C@H](CCC(N)=O)NC(=O)[C@H](CCCCN)NC(=O)[C@H](CCC(=O)O)NC(=O)[C@@H](NC(=O)[C@H](CCC(=O)O)NC(=O)[C@@H](NC(=O)[C@H](CCSC)NC(=O)[C@H](CCCCN)NC(=O)[C@H](CCCNC(=N)N)NC(=O)[C@H](CC(C)C)NC(=O)[C@H](CC(C)C)NC(=O)[C@H](C)NC(=O)[C@H](Cc1c[nH]cn1)NC(=O)[C@@H]1CCCN1C(=O)[C@H](CC(C)C)NC(=O)[C@H](CC(=O)O)NC(=O)[C@@H](NC(=O)[C@H](CO)NC(=O)[C@@H](NC(=O)[C@@H]1CCCN1C(=O)[C@@H]1CCCN1C(=O)CNC(=O)[C@@H]1CCC(=O)N1)[C@@H](C)CC)[C@@H](C)CC)[C@@H](C)CC)[C@@H](C)CC)[C@@H](C)O)C(N)=O` [compound 304], which EC50 [1] is on record?
Its EC50 is 19.3 nM.

And the Emax [1]?
The Emax was 92.5%.

And the EC50 [2]?
The EC50 was 116 nM.

And the Emax [2]?
Its Emax is 100%.

How did the Emax [1] turn out when `CC[C@H](C)[C@H](NC(=O)[C@H](CCC(=O)O)NC(=O)[C@@H](NC(=O)[C@H](CCSC)NC(=O)[C@H](CCCCN)NC(=O)[C@H](CCCNC(=N)N)NC(=O)[C@H](CC(C)C)NC(=O)[C@H](CC(C)C)NC(=O)[C@H](CCC(N)=O)NC(=O)[C@H](CC(C)C)NC(=O)[C@@H]1CCCN1C(=O)[C@H](CC(C)C)NC(=O)[C@H](CC(=O)O)NC(=O)[C@@H](NC(=O)[C@H](CO)NC(=O)[C@@H](NC(=O)[C@@H]1CCCN1C(=O)[C@@H]1CCCN1C(=O)CNC(=O)[C@@H]1CCC(=O)N1)[C@@H](C)CC)[C@@H](C)CC)[C@@H](C)CC)C(=O)N[C@@H](CCC(=O)O)C(=O)N[C@@H](CCCCN)C(=O)N[C@@H](CCC(N)=O)C(=O)N[C@@H](CCC(=O)O)C(=O)N[C@@H](CCCCN)C(=O)N[C@@H](CCC(=O)O)C(=O)N[C@@H](CCCCN)C(=O)N[C@@H](CCC(N)=O)C(=O)N[C@@H](CCC(N)=O)C(=O)N[C@@H](C)C(=O)N[C@H](C(=O)N[C@H](C(=O)N[C@@H](CC(N)=O)C(=O)N[C@@H](C)C(=O)N[C@@H](CCCNC(=N)N)C(=O)N[C@@H](CC(C)C)C(=O)N[C@@H](CC(C)C)C(=O)N[C@@H](CC(=O)O)C(=O)N[C@H](C(=O)N[C@H](C(N)=O)C(C)C)[C@@H](C)O)[C@@H](C)O)[C@@H](C)O` [compound 246] was run?
The Emax was 100%.

And the Emax [2]?
Its Emax is 33%.
